Test [1] concerns the target T1, D(3) dopamine receptor (Homo sapiens, UniProt P35462). The test is described as follows: Antagonist activity at human dopamine D3 receptor expressed in CHOp cells assessed as inhibition of quinpirole-induced mitogenesis. Format: functional, cell-based.
Test [2] has as its target T1, D(3) dopamine receptor. The test can be described thus: Antagonist activity at human dopamine D3 receptor expressed in CHO-K1 cells assessed as inhibition of dopamine-induced recruitment of beta-arrestin-2 after 90 mins by beta-galactosidase assay. Type of test: functional, cell-based.

Protein sequences, listed by entry. Tags and fused reporters are not part of them.
UniProt P35462, whole entry: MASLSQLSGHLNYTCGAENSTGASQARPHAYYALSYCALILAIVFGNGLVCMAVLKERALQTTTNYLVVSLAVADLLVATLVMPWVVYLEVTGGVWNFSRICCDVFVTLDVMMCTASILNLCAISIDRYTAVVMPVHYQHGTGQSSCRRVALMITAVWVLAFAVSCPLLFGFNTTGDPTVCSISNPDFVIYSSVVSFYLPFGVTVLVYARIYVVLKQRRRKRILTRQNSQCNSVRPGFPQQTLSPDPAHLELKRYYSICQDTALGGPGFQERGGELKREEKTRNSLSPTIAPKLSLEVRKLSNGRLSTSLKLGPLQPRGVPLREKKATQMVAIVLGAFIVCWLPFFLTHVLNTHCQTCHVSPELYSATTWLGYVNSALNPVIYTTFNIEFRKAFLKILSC

Consider `CCN1CCCC1CNC(=O)c1cc(S(N)(=O)=O)ccc1OC` (configuration not stated) [SULPIRIDE], for which the IC50 came out at 0.0662 µM in test [1] and 0.56 µM in test [2].

These data come from ChEMBL document CHEMBL1772985, “N-(3-fluoro-4-(4-(2-methoxy or 2,3-dichlorophenyl)piperazine-1-yl)butyl)arylcarboxamides as selective dopamine D3 receptor ligands: critical role of the carboxamide linker for D3 receptor selectivity” (J Med Chem, 2011).
